Assay: Single-dose oral pharmacokinetics in dog
Assay type: in vivo
Conditions: male, Beagle, plasma, 1 mg/kg

bioavailability: 74%
SMILES: CCCNS(=O)(=O)Nc1ncnc(OCCOc2ncc(Br)cn2)c1-c1ccc(Br)cc1 [macitentan]

— publication PMC7330163 (Pharmacology Research & Perspectives, 2020)
